The record followed here is ChEMBL document CHEMBL5360648, “Identification of 5-HT2 Serotonin Receptor Modulators through the Synthesis of a Diverse, Tropane- and Quinuclidine-alkaloid-Inspired Compound Library” (J Med Chem, 2023).

Sequences of proteins named here, by UniProt entry; tags and fusion partners are left off. A change or cut given only in a name is not applied to a line headed by its entry.
UniProt P28223, whole entry: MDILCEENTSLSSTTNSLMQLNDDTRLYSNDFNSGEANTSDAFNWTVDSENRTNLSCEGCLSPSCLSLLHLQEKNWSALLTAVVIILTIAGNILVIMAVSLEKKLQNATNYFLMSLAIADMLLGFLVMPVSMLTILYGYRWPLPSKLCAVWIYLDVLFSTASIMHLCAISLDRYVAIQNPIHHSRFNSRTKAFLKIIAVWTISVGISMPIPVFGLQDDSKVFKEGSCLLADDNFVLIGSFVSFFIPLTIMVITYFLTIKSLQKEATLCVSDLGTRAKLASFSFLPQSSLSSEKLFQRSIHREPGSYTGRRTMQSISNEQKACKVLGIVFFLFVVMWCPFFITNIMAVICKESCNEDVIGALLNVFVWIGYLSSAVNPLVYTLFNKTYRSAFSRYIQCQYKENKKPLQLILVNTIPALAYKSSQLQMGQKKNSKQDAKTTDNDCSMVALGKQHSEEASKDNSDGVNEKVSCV
UniProt P28335: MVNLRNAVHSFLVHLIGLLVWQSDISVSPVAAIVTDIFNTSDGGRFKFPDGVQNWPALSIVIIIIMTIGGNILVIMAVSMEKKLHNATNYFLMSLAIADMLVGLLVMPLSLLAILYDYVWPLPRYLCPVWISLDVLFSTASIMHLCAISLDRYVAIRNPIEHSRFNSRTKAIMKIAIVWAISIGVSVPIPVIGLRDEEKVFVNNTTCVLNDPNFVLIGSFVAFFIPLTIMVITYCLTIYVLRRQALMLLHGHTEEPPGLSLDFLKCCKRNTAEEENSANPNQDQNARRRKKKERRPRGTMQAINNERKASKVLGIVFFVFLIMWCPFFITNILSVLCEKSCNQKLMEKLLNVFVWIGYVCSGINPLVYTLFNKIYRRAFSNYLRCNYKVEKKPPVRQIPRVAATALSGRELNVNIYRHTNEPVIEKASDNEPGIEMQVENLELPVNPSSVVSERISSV

The source made the active and inactive calls. No cut-off for these calls is given here.

Experiment [1] concerns the target 5-hydroxytryptamine receptor 2A (Homo sapiens, UniProt P28223). Nature of the experiment: Agonist activity at 5-HT2A receptor in HEK293 cells assessed as calcium mobilisation by Fluo-4 dye based assay. Type of experiment: functional, cell-based. A general note: Calcium assays in cells follow changes in intracellular calcium, usually with a dye or a luminescent sensor.

The target of experiment [2] is 5-hydroxytryptamine receptor 2C (Homo sapiens, UniProt P28335). Nature of the experiment: Agonist activity at 5-HT2C receptor in HEK293 cells assessed as calcium mobilisation by Fluo-4 dye based assay. It is filed as functional, cell-based.

For the compound `CN1C2CC[C@H]1c1c(nc3cc(F)ccc3c1-c1ccccc1)C2`, the outcome in experiment [1] and in experiment [2] was inactive.
As to `CN1C2CC[C@H]1c1c(nc3cccc(Cl)c3c1-c1ccccc1)C2`, the result in experiment [1] and in experiment [2] was inactive.
With `Cc1c2c(nc3ccccc13)CC1CC[C@@H]2N1C`, the result in experiment [1] and in experiment [2] was inactive.
In the case of `CN1C2CC[C@H]1c1cc3ccc(F)cc3nc1C2`, the result in experiment [1] and in experiment [2] was inactive.
Consider `CN1C2CC[C@H]1c1c(nc3ccccc3c1-c1ccccc1)C2`, for which the result in experiment [1] and in experiment [2] was inactive.
For `CN1C2CC[C@H]1c1c(nc3ccc(Cl)cc3c1-c1ccccc1F)C2`, the result in experiment [1] and in experiment [2] was inactive.
With `COc1cc2cc3c(nc2cc1OC)CC1CC[C@@H]3N1C`, the outcome in experiment [1] and in experiment [2] was inactive.
